Source: PMC10327353 (Breast Cancer Research : BCR, 2023)

Test system: BT474C1-Luci Mono1 SC xenograft
Experiment: SC (subcutaneous) BT474C1-Luci Mono1 xenograft model
Format: in vivo, nude mice
Conditions: T-DXd alone 10 mg/kg once weekly
Experimental: Tumor cell suspension at 5 × 10^6 were injected subcutaneously in a total volume of 0.2 ml (1:1 with ECM Gel) into each mouse. 17β-ESTRADIOL (90-day release, 0.36 mg/pellet) were implanted 24 hrs before cells were injected subcutaneously. Tumor nodules were measured in two dimensions with caliper and the tumor volume was calculated using the following formula: tumor volume = (length × width^2) × 0.5. Tumor-bearing mice were randomized into different treatment groups when the mean tumor volume reached around 150 mm^3.

T-DXd [reference compound] was tested, and the antitumor efficacy was “complete tumor remission”.
